US20260115313A1, “ANTIBODY-CONJUGATED LIPOSOME” (Highfield Biopharmaceuticals Corporation, priority 2021, published 2026)

Tests used:
[1] = tested on: NCI-N87 gastric cancer xenograft; assay: NCI-N87 gastric cancer xenograft dose-dependent efficacy; assay type: in vivo, Balb/C-Nude nude mice; settings: 5 mg/kg once a week, 5 doses
Experimental: […] grade were purchased and allowed to acclimatize in the animal breeding room for about a week. After NCI-N87 cells grew to the logarithmic growth phase, they were digested with trypsin, centrifuged, and then collected. The cells were then washed with PBS buffer 2-3 times, then resuspended in PBS buffer and counted. The cell density was then adjusted to 2*10^8 cells/mL. The Matrigel matrix gel was removed from the refrigerator at -20° C. and melted on ice in advance, and the cell suspension was mixed with the Matrigel matrix gel according to a volume of 1:1. Based on the amount of 1*10^7 cells, a 1 mL syringe was used to aspirate the corresponding volume of cell suspension and subcutaneously inoculate it into the right axillary area of nude mice, with pressure applied to the needle puncture site for 30 s after inoculation to prevent the leakage of the cell solution. After inoculation, a significant subcutaneous papule was observed. The inoculated mice were observed regularly and tumor growth was monitored. […] After grouping, the control group was given empty liposomes via the caudal vein. […] The body weight and tumor growth curve of the mice were recorded every other day, and the mice were euthanized after the end of dosing. […]

[2] = tested on: MCF-7 breast cancer xenograft; assay: MCF-7 breast cancer (HER2-low) xenograft pharmacodynamics; assay type: in vivo, Balb/C-Nude nude mice; settings: MCF-7 xenograft; 5 mg/kg once a week, 5 doses
Experimental: The MCF-7 breast cancer cell line with low cell-surface HER2 expression was selected to construct a Balb/C-Nude nude mouse xenograft model. […] Construction of NCI-N87 Breast Cancer Balb/C-Nude Nude Mouse Xenograft Model […] After grouping, the control group was given empty liposomes via the caudal vein. The nude mice in the Formulation A doxorubicin-loaded liposome group were given a 2 mg/kg dose of doxorubicin-loaded liposome with a drug-to-lipid ratio of 0.17 via the caudal vein according to body weight; the nude mice in the 10-[…] group were also similarly given 2, 5 and 10 mg/kg doses of HER2 Fab antibody-targeted Formulation C doxorubicin-loaded liposome via the caudal vein according to body weight; at the same time, the trastuzumab group was set as the control group and given 5 mg/kg once a week and a total of 5 doses were administered. The body weight and tumor growth curve of the mice were recorded every other day, and the mice were euthanized after the end of dosing. The efficacy evaluation method was the same as that in 10.2.

trastuzumab
tumor inhibition rate [1]: 14.49% | tumor inhibition rate [2]: 2.91%
